pKd: −log10 of the molar value.

The target of the assay is T1, SHANK1 PDZ domain (656–762) (Homo sapiens, UniProt Q9Y566).
T1 construct: Human SHANK1 PDZ domain (656–762) was prepared as described previously; GST (N, cleaved yes); made in house; host or cells: E. coli BL21 Gold (pGEX-6P-2)
T1 sequence (Q9Y566 656-762): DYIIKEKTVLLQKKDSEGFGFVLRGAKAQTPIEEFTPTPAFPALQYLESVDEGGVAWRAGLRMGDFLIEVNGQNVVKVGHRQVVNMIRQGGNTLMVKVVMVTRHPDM
Briefly: Isothermal titration calorimetry (ITC). The assay is classed as binding.

What is called pKd is the negative decadic logarithm of the Kd, by convention in mol/L. `CC(=O)N[C@@H](CCC(=O)O)C(=O)N[C@@H](C)C(=O)N[C@@H](CCC(N)=O)C(=O)N[C@H](C(=O)N[C@@H](CCCNC(=N)N)C(=O)N[C@@H](CC(C)C)C(=O)O)[C@@H](C)O` [GKAP PBM, reference compound] had a pKd of 5.80.

For the origin of these results see PMC11346428, “Biophysical and structural analyses of the interaction between the SHANK1 PDZ domain and an internal SLiM” (Biochemical Journal, 2024).
